Measured values as given in patent US7238711.

Target: chemokine receptors on THP-1 cells
Assay: binding to THP-1 cells

KQK (peptide)
binding sites per cell (sites per cell): 15000
